Article PMC8834685 (International Journal of Molecular Sciences, 2022)

Target: T1, DmUCP4A (Drosophila melanogaster, UniProt Q9VX14)
T1 construct: gene Ucp4A
T1 sequence (Q9VX14 1-340): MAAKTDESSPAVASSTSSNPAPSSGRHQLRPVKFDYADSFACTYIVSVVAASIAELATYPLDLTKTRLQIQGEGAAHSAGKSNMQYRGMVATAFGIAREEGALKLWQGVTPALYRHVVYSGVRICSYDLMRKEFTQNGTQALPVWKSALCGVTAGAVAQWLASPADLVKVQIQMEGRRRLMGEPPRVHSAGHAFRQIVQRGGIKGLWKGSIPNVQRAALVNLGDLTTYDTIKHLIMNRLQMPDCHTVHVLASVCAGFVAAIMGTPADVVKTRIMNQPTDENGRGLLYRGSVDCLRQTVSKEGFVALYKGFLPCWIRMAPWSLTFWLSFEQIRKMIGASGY
Settings: 0.3 mM external [14C]aspartate, 10 mM internal aspartate, pH 6.5, 25 °C, 1 min; thiol reagent added 2 min before substrate; covalent

COC([CH2][Hg+])CNC(=O)c1ccccc1OCC(=O)O (stereo not shown) [mersalyl]
% inhibition at 10 μM: thiol reagents such as mersalyl, pCMBS, and pHMB were powerful inhibitors of DmUCP4A transport function
